Experimental findings from US11530216B2, “Deuterated colony stimulating factor-1 receptor (CSF-1R) inhibitors” (Genzyme Corporation, priority 2020, dated 2022) are described below.

Assay [1] concerns MCP-1 production in BV2 murine microglial cells. The experiment in a line: MCP-1 ELISA, BV2 microglial cells after CSF-1 stimulation. The assay is classed as cell-based, mouse. The note with it: 3.125-400 nM, 100 ng/mL M-CSF 24 hours. Here is the method:
To compare the impact of a CSF-1R inhibitory compound and a deuterated CSF-1R inhibitory compound of this disclosure on cytokine/chemokine production following CSF-1 stimulation, the following experiments were conducted in BV2 murine microglial cells.
Two different passages of BV2 mouse microglial cells were plated in different 96-well plates to provide biological quadruplicates.
Both test compounds were prepared in diluted stock solution (10 mM) with culture media to get a 100 μM working solution and treated at 3.125 nM, 6.25 nM, 12.5 nM, 25 nM, 50 nM, 100 nM, 200 nM or 400 nM.
BV2 mouse microglia were suspended at a concentration of 5×10^5 cells/mL and 100 μL of this cell suspension was added to each well of a 96-well plate. Microglia cells were allowed to rest overnight at 37° C., 5% CO2. […] Cells were then stimulated with 100 ng/mL recombinant mouse M-CSF for 24 hours. […]
Culture supernatants were assayed with the Quantikine Mouse MCP-1 ELISA kit from R&D Systems. […] After incubation, the acid stop solution was added to each well, and the plate was read on the ELISA plate reader at 450 nm.
BV2 murine microglia were plated at 50,000 cells per well and rested overnight. […] Percent inhibition was calculated based upon unstimulated and stimulated controls and IC50 curves were generated.
In general terms: An ELISA detects its analyte on a solid surface through an enzyme-linked reagent.

Assay [2] has as its system MCP-1 production in primary murine microglial cells. Kind of assay: MCP-1 ELISA, primary mouse microglia after CSF-1 stimulation. The assay is classed as cell-based. The note with it: 3.125-400 nM, 100 ng/mL CSF-1 24 hours. On the procedure: To compare the effect of two CSF-1R inhibitory compounds and one deuterated CSF-1R inhibitory compound of this disclosure on microglial cytokine/chemokine production following CSF-1 stimulation, the following experiment was conducted in primary murine microglial cells. All test compounds were prepared in diluted stock solution (10 mM) with culture media to get a 100 μM working solution and treated at 3.125 nM, 6.25 nM, 12.5 nM, 25 nM, 50 nM, 100 nM, 200 nM or 400 nM. Primary mouse microglia were suspended at a concentration of 5×10^5 cells/mL and 100 μL of this cell suspension was added to the inner 60 wells of three 96-well plates. Microglia cells were allowed to rest overnight at 37° C., 5% CO2. […] Cells were then stimulated with 100 ng/mL recombinant mouse CSF-1 for 24 hours. After stimulation, the culture supernatant was removed from each well and aliquoted into two different 96-well plates for subsequent ELISA assays. Plates were fixed with 4% PFA for future immunocytochemistry analysis. Culture supernatants were assayed with the Quantikine Mouse MCP-1 ELISA kit (R&D Systems, cat #SMJE00B). […] After incubation, the acid stop solution was added to each well, and the plate was read on the FlexStation3 Multi-Mode Microplate Reader (Molecular Devices, cat #Flex3) with SoftMax Pro Software at 450 nm. […] MCP-1 secretion was assessed after 24 hours utilizing R&D MCP-1 Elisa Kit. […]

For assay [3], the system named is primary murine microglia. Kind of assay: Immunostaining of primary microglia (Iba1+ area, DAPI+ nuclei) after CSF-1 stimulation. The assay is classed as cell-based, mouse. Here is the method: Primary mouse microglia were suspended at a concentration of 5×10^5 cells/mL and 100 μL of this cell suspension was added to the inner 60 wells of three 96-well plates. Microglia cells were allowed to rest overnight at 37° C., 5% CO2. […] Cells were then stimulated with 100 ng/mL recombinant mouse CSF-1 for 24 hours. After stimulation, the culture supernatant was removed from each well and aliquoted into two different 96-well plates for subsequent ELISA assays. Plates were fixed with 4% PFA for future immunocytochemistry analysis. Following the stimulation, cells were fixed with 4% PFA for 20 minutes at room temperature. Cells were then rinsed in PBS, washed 3×5 minutes in 0.2% PBT (0.2% Triton X-100 in PBS) and blocked with 10% donkey serum/0.2% PBT for 1 hour at room temperature. […] The average value per field in each well (typically 6-9 fields per well as certain fields excluded due to staining artifact) was calculated for each technical triplicate and normalized to the average of the DMSO control wells. […] InCell imaging microsope and analysis software was used to quantify Iba1^+ area, and the number of DAPI^+ nuclei within the cultures. Ki67 could not be quantified because condensation during ICC cross-transferred Ibalantibody into Ki67 wells. […]

On to `[2H]c1nc2cccnc2n1Cc1cc(OC)c2c(c1)O[C@@H](C)[C@H](c1ccc(OC)nc1)O2` [Compound 6, 3-(((2S,3S)-8-methoxy-2-(6-methoxypyridin-3-yl)-3-methyl-2,3-dihydrobenzo[b][1,4]dioxin-6-yl)methyl)-3H-imidazo[4,5-b]pyridine-2-d], for which the MCP-1 production entry in assay [1] and in assay [2] was “significantly reduced MCP-1 production in a concentration dependent manner” throughout. Moreover, in assay [3] (CSF-1 stimulation increases Iba1+ area), the “Iba1+ area” value is listed as “significantly abrogated this effect in a concentration dependent manner”. For the same compound, in assay [3] (CSF-1 stimulation increases cell number), the “number of cells (DAPI+ cells)” value is “reduce this number in a concentration dependent manner”.
Take `COc1ccc(C2Oc3c(OC)cc(Cn4cnc5cccnc54)cc3O[C@H]2C)cn1` (some centres unmarked) [Compound 24]: in assay [1], the MCP-1 production entry is recorded as “significantly reduced MCP-1 production in a concentration dependent manner”.
